These are literature values, as cited in PMC3098941 (ACS chemical biology, 2011).

As a reminder, the pKd is the negative decadic logarithm of the Kd, by convention in mol/L.

pKd: −log10 of the molar value.

The target in the data set is cyclin A (Homo sapiens) (UniProt P20248). Kind of data set: mant-ATP fluorescence. Particulars: cited from earlier work.

Turning to CDK2 (from UniProt P24941), the pKd was 5.89.
